One compound from ChEMBL document CHEMBL4414557, “Labdanes, Withanolides, and Other Constituents from Physalis nicandroides” (J Nat Prod, 2019) can be followed below.

Chains of the proteins cited; added tags and fusions are not shown. Lines headed by an entry give the natural chain unless they say otherwise; changes in a name come on top.
UniProt O42275: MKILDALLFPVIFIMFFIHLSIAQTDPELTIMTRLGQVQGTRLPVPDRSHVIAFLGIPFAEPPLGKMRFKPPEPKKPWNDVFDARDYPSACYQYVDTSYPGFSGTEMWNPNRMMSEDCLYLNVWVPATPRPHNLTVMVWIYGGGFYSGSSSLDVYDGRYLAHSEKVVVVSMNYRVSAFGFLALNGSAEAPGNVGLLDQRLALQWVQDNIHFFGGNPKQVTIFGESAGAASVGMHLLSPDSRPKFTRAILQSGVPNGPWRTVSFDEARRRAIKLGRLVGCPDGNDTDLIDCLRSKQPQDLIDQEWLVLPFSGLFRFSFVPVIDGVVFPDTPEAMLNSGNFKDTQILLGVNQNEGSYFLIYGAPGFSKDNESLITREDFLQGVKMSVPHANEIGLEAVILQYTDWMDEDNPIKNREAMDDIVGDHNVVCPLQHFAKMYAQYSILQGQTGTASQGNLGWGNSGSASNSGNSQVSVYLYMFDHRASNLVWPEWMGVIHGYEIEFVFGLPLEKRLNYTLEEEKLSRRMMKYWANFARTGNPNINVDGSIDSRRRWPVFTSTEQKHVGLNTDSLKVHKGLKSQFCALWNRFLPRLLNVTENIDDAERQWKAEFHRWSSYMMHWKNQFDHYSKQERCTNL

pIC50: −log10 of the molar value.

In the test the target is Acetylcholinesterase (Electrophorus electricus, UniProt O42275). In words: Inhibition of Electrophorus electricus AChE using acetylthiocholine iodide as substrate preincubated for 30 mins followed by substrate addition and measured after 5 mins by Ellman's method. (In general: DTNB colorimetry detects thiols as they appear.)

For the compound `CNC(=O)Oc1ccc2c(c1)[C@]1(C)CCN(C)[C@@H]1N2C` [PHYSOSTIGMINE], the pIC50 was 8.52.

Usually pIC50 stands for the negative decadic logarithm of the IC50, by convention in mol/L.
